Experimental data taken from US10208089B2, “Modulation of complement activity” (priority 2014, dated 2019).

The chains behind the UniProt entries cited, without tags or fusion partners. Residues count along the entry.
UniProt P01031, 19-1676: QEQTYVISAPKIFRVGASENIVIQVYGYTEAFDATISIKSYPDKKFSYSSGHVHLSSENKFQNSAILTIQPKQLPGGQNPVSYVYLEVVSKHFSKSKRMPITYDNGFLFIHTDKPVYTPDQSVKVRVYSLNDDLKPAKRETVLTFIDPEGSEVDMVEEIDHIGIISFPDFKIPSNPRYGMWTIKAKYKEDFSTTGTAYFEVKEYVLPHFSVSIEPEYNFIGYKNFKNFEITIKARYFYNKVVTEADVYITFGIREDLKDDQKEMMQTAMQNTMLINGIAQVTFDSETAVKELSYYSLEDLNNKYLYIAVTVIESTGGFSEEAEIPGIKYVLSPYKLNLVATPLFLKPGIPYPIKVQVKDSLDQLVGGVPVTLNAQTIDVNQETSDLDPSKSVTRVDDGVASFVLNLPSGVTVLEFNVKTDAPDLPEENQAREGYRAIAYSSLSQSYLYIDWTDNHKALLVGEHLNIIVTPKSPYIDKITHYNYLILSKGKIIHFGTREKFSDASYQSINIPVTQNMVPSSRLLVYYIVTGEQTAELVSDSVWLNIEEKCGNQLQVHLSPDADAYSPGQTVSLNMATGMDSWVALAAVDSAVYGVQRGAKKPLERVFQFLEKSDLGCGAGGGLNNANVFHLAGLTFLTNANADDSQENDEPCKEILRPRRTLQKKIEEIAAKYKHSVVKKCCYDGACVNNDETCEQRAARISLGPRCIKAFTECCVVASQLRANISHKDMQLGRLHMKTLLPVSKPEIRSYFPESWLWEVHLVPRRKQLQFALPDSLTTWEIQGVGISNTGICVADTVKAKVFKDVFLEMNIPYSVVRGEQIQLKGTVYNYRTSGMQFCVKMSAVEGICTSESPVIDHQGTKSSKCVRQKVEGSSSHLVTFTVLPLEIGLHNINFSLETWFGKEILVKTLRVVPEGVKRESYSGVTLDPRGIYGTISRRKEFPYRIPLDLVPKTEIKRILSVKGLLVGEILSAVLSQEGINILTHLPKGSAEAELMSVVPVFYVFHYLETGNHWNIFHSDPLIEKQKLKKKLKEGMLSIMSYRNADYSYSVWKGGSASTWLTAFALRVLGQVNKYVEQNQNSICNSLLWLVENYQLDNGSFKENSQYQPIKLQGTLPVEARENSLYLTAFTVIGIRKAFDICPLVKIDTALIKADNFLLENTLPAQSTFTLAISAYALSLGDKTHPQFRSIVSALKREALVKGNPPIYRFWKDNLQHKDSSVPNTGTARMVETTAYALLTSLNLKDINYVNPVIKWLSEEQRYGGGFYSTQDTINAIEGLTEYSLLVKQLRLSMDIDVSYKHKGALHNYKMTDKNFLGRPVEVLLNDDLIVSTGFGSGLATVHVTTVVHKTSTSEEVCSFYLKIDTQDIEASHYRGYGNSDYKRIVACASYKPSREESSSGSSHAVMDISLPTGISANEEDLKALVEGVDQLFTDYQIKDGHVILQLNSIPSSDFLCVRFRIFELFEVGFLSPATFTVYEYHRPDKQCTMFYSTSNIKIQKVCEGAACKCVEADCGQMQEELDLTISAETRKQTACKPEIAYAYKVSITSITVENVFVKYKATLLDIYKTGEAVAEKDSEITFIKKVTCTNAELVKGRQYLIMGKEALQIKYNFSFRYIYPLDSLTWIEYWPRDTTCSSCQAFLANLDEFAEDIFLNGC

Key:
[1] = test system: C5a; assay: C5a EIA on supernatant from human RBC hemolysis assay; assay type: biochemical; conditions: hemolysis assay supernatant diluted 1:50; read-out: IC50, inhibition of formation of C5a
Description: Levels of C5a correlate with complement activity and are therefore an indicator of the ability of the compounds tested to inhibit complement activity. Supernatant from the hemolysis assay was diluted 1:50 and assayed for C5a levels. […] As used herein, the term “IC50” refers to the half maximal inhibitory concentration, a value used to indicate the amount of the inhibitor needed to reduce a given reaction or process by half.
Inhibition of the production of C5a and the membrane attack complex (MAC) were measured by MicroVue EIA kits (Quidel Corporation, San Diego, Calif.).

[2] = target: C5 (Homo sapiens, UniProt P01031); assay: Human hemolysis assay (RBC lysis assay using complete human sera); assay type: cell-based; parameters: with complete human sera (Complement Technology, Tyler Tex.) and polypeptides; tissue Complement Technology, Tyler Tex; host or cells: complete human serum
[3] = Pharmacokinetic studies in rat (IV and SC); conditions: male Sprague-Dawley rats, R3183 versus unlipidated R3176
Description: Left: Male Sprague-Dawley rats (n=3) were injected intravenously at a single 2 mg/kg dose. Blood samples were collected at indicated time points, processed into plasma, and analyzed for the indicated compound by LC-MS. […] […] Blood samples were collected at indicated time points, processed into plasma, and analyzed for the indicated compound by LC-MS.
Blood samples were collected at indicated time points, processed into plasma, and analyzed for the indicated compound by LC-MS. […] Blood samples were collected at indicated time points, processed into plasma, and analyzed for the indicated compound by LC-MS.

Work on CCC[C@H](NC(=O)[C@@H](NC(=O)[C@@H]1CCCN1C(=O)[C@H](Cc1ccc(O)cc1)NC(=O)[C@H](CCC(=O)O)NC(=O)[C@H](Cc1c[nH]c2ncccc12)NC(=O)[C@H](Cc1ccc(O)cc1)NC(=O)[C@@H](NC(=O)[C@H](CC(N)=O)NC(=O)[C@H](CCC(=O)O)NC(=O)[C@H](Cc1ccc(O)cc1)NC(=O)[C@H](CS)NC(=O)[C@H](CCC)NC(C)=O)C(C)(C)C)c1ccccc1)C(N)=O [Compound R3002, Ac-Nvl-C-Y-E-N-Tbg-Y-azaTrp-E-Y-P-Phg-Nvl-NH2] yielded an IC50 [1] of 5.4 nM.
CC(=O)N[C@H]1CSCc2cccc(c2)CSC[C@@H](C(=O)N[C@@H](CC(=O)O)C(=O)N[C@H](C(=O)N[C@@H](Cc2ccc(O)cc2)C(=O)N[C@@H](Cc2c[nH]c3ncccc23)C(=O)N[C@@H](CCC(=O)O)C(=O)N[C@@H](Cc2ccc(O)cc2)C(=O)N2CCC[C@H]2C(N)=O)C(C)C)NC(=O)[C@H](Cc2ccccc2)NC(=O)[C@H](CCCNC(=N)N)NC(=O)[C@H](CCC(=O)O)NC(=O)[C@H](C(C)C)NC1=O [Compound R3142, [mXylyl(1,6)]Ac-C-V-E-R-F-C-D-V-Y-azaTtp-E-Y-P-NH2] gave an IC50 [2] of 44.6 nM.
For CCCCCCCCCCCCCCCC(=O)NCCCC[C@H](NC(=O)[C@@H](NC(=O)[C@@H]1CCCN1C(=O)[C@H](Cc1ccc(O)cc1)NC(=O)[C@H](CCC(=O)O)NC(=O)[C@H](Cc1c[nH]c2ncccc12)NC(=O)[C@H](Cc1ccc(O)cc1)NC(=O)[C@@H](NC(=O)[C@H](CC(=O)O)N(C)C(=O)[C@@H]1CC(=O)NCCCC[C@H](NC(C)=O)C(=O)N[C@@H](C(C)C)C(=O)N[C@@H](CCC(=O)O)C(=O)N[C@@H](CCCNC(=N)N)C(=O)N[C@@H](Cc2ccccc2)C(=O)N1)C(C)(C)C)C1CCCCC1)C(=O)O [Compound R3183, [cyclo(1,6)]Ac-K-V-E-R-F-D-(N-Me)D-Tbg-Y-azaTrp-E-Y-P-Chg-(Lys-C16)], the “increase in exposure (AUC) by lipidation” value ([3]; intravenous 2 mg/kg) was 2.1 fold and the “increase in exposure (AUC) by lipidation” value ([3]; subcutaneous 15 mg/kg) was 2.7 fold.
